Laboratory results as given in the NIST ThermoML archive (doi:10.1016/j.fluid.2005.06.017).

Details: 373.15 K; Liquid; Ebulliometric method (Recirculating still)

SMILES: CCCCOCCCC [dibutyl ether]
- vapor or sublimation pressure: 28.4 ± 3 kPa

Numbers after ± are expanded uncertainties.
